For 1 substance, Km results are on record in paper PMC10666288, “Unveiling the Catalytic Mechanism of a Processive Metalloaminopeptidase” (Biochemistry, 2023).

This series concerns CC(C)C[C@H](NC(=O)[C@@H](NC(=O)[C@H](C)N)C(C)C)C(=O)N[C@@H](CCC(N)=O)C(=O)N[C@@H](CO)C(=O)NCC(=O)N[C@@H](Cc1ccccc1)C(=O)N[C@@H](CCCNC(=N)N)C(=O)N[C@@H](CCCCN)C(=O)N[C@@H](CCCCN)C(N)=O. As to the kind of experiment: purified protein, by the assay type. Conditions: other: progress curves of parent peptide fitted in Kintek Global Explorer, 1 μM PaPepA, 3 mM MnCl2; pH 8.0.

As to “PaPepA (Pseudomonas aeruginosa UCBPP-PA14)”, the Km turned out to be 0.155 mM.
